The subject of assay [1] is MES SA DX (human uterine sarcoma cell line with marked multidrug resistance). Briefly: In vitro cytotoxicity assay (72 hour killing assay, CellTiter-Glo), MES SA DX. The settings on record: read-out: IC50 MES SA DX, 50% inhibitory concentration against cell growth, multidrug resistant line. For orientation: ATP-based viability assays read luminescence as a measure of living cells.

For assay [2], the system named is MES SA (human uterine sarcoma). Description: In vitro cytotoxicity assay (72 hour killing assay, CellTiter-Glo), MES SA. The following applies: read-out: IC50 MES SA, 50% inhibitory concentration against cell growth.
Assay [3] deals with HEK 293T (human embryonic kidney cancer cell line). Description: In vitro cytotoxicity assay (72 hour killing assay, CellTiter-Glo), HEK 293T. The following applies: read-out: IC50 HEK 293T, 50% inhibitory concentration against cell growth.

This is a selection: effects in other tests are not listed, and their absence says nothing. Some results are limits rather than exact numbers.

The results in this text go back to patent US20210230178A1, “TRIOXACARCIN ANALOGS AND DIMERS AS POTENT ANTICANCER AGENTS” (William Marsh Rice University, priority 2017, published 2021).

In the case of DC-45-A1, the IC50 in assay [1] was > 1000 nM; in assay [2], 18.1 nM; in assay [3] it was 14.9 nM.
Turning to Trioxacarcin C, the IC50 in assay [1] is > 500 nM; in assay [2], 6.09 nM; in assay [3], 5.25 nM.
